Reference: BindingDB's records for patent US20230312576 (Centre National De La Recherche Scientifique, 2023)

The chains behind the UniProt entries cited, without tags or fusion partners. Where a name states a change or a piece, a line headed by the entry shows the natural chain unless it says otherwise.
UniProt P53671: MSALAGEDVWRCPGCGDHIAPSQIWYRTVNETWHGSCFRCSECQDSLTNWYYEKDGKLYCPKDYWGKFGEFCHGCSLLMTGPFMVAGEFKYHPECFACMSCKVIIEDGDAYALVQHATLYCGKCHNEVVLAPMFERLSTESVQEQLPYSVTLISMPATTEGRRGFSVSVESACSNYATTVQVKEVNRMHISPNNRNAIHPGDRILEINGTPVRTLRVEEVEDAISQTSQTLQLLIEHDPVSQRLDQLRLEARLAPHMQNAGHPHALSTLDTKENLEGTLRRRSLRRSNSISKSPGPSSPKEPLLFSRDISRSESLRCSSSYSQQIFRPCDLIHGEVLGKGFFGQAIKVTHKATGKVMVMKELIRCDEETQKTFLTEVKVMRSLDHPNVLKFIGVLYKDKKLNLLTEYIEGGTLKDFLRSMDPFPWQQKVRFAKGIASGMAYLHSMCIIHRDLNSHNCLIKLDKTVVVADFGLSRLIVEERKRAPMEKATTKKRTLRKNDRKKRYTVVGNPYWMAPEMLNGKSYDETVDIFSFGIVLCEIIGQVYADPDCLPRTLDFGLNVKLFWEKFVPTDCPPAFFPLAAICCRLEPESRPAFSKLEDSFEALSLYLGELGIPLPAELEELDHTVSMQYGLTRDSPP

Target: LIM domain kinase 2 (Homo sapiens, UniProt P53671)

For Cc1c[nH]c2ncnc(C3=CC(C)N(C(=O)Nc4cccc(Cl)c4)C(C)C3)c12 (stereo unspecified) [US20230312576, Compound 63], which Ki is on record?
The Ki was 8.49 nM.
